Measurements as given in article PMC8232238 (Cells, 2021).

Amino acid sequences for entries named in this document (tags omitted). A change or cut given only in a name is not applied to a line headed by its entry.
UniProt O15379: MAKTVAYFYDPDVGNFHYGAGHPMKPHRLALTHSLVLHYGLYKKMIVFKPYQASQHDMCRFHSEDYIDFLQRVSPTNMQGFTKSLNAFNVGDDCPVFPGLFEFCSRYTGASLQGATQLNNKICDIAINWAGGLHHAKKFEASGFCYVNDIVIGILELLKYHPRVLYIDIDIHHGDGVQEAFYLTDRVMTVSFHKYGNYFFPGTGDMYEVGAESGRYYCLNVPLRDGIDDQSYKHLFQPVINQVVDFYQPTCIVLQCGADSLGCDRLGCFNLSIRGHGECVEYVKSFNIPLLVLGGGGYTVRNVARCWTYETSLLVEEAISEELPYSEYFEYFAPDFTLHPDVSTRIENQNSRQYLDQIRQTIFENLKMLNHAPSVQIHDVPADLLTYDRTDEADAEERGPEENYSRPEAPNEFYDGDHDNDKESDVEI

Tests used:
Type in all cases: biochemical
HDAC6 = molecular target: T1, HDAC6 (Homo sapiens, UniProt Q9UBN7); assay: HDAC6 enzyme inhibition assay (single point and 10-dose IC50, Reaction Biology); settings: single point, inhibitor 0.01 μM; average of two measurements, ±2%
T1 construct: purchased Reaction Biology corporation (contract assay)
T1 sequence (Q9UBN7 1-1215): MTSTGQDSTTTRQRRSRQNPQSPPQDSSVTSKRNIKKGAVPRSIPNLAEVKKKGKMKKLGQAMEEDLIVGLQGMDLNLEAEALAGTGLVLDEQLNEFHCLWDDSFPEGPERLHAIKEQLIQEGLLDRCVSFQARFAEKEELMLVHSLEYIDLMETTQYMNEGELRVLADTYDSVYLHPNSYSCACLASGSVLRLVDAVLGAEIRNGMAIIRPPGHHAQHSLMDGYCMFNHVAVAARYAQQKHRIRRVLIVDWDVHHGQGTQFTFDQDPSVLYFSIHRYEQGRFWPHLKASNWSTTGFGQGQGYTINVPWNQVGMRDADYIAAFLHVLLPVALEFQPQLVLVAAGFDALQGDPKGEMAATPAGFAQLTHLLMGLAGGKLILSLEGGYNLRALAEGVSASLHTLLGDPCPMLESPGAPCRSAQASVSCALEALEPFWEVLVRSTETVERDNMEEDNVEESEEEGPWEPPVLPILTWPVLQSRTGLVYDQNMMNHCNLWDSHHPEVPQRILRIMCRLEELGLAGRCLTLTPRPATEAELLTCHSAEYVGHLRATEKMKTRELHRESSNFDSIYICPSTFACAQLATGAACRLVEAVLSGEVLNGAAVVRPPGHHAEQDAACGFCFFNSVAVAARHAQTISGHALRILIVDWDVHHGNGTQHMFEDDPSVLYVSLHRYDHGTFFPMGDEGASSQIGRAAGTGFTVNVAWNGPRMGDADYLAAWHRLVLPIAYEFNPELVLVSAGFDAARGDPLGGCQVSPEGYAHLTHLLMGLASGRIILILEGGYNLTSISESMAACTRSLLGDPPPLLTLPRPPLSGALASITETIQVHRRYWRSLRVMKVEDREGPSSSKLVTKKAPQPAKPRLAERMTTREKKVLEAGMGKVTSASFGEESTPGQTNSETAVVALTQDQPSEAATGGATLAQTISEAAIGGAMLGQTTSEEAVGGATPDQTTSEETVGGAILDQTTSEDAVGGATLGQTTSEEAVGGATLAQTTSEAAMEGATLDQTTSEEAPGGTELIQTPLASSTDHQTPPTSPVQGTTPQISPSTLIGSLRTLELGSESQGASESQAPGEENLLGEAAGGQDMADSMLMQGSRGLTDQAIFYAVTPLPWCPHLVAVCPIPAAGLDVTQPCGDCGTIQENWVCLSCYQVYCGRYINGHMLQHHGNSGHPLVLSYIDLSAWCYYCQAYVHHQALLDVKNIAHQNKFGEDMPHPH

HDAC11 = molecular target: T2, HDAC11 (Homo sapiens, UniProt Q96DB2); assay: HDAC11 enzyme inhibition assay (single point and 10-dose IC50, Reaction Biology); settings: single point, inhibitor 1.0 μM; average of two measurements, ±2%
T2 construct: purchased Reaction Biology corporation (contract assay)
T2 sequence (Q96DB2 1-347): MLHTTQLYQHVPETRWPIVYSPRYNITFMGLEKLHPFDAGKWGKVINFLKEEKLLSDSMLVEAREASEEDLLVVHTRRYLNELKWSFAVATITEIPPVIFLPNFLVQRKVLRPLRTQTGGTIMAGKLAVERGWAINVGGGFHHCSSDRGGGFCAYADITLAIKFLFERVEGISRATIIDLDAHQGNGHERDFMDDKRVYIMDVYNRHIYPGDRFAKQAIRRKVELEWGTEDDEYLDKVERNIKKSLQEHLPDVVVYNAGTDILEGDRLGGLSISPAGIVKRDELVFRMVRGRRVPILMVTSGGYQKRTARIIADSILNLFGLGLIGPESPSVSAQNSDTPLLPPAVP

HDAC3 = molecular target: T3, HDAC3 (Homo sapiens, UniProt O15379); assay: HDAC3 enzyme inhibition assay (single point and 10-dose IC50, Reaction Biology); settings: single point, inhibitor 1.0 μM; average of two measurements, ±2%
T3 construct: purchased Reaction Biology corporation (contract assay)

HDAC6 average enzyme isoform activity (percentage of full enzyme activity) (HDAC6): 39.8% | HDAC11 average enzyme isoform activity (percentage of full enzyme activity) (HDAC11): 78.6% | HDAC3 average enzyme isoform activity (percentage of full enzyme activity) (HDAC3): 43.8%
SMILES: O=C(CCCCCN1C(=O)c2cccc3cccc(c23)C1=O)NO [scriptaid, reference compound]
